# Values quoted from earlier work as cited in PMC6438780 (Xenobiotica; the fate of foreign compounds in biological …, 2018).
# Read-outs that look alike come from different tables or passages of the source.
# Test system: liver microsomes of humans
# Settings: ref data sheets provided by the manufacturer, cited from earlier work
smiles,measurement,setting,value
"O=C(O)Cc1ccccc1Nc1c(Cl)cccc1Cl [Dilofenac, diclofenac]",Dilofenac 4’-hydroxylation,human sample HH2,3.3 nmol/mg/min
same,Dilofenac 4’-hydroxylation,human sample HH47,2.8 nmol/mg/min
